Laboratory results as given in patent publication US5204349A, “Amide-substituted derivatives of spiroindanylcamphorsulfonyl oxytocin antagonists” (priority 1991, dated 1993).

Molecular target: T1, uterine OT receptors (Rattus norvegicus, UniProt P70536)
T1 construct: from tissue; host or cells: rat uterus, crude membranes, DES-treated animals
T1 sequence (P70536 1-388): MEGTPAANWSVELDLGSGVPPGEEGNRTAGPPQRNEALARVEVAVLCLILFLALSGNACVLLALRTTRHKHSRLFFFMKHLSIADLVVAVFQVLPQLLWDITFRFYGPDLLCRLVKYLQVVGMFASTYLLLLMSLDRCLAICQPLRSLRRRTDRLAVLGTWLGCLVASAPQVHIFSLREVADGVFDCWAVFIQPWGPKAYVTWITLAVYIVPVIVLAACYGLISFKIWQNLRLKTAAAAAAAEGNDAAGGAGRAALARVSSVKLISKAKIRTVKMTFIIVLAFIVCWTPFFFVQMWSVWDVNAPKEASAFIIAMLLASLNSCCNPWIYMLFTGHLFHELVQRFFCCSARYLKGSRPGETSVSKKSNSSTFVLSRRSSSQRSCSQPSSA
Experiment: saturation binding of [^3 H]OT to uterine OT receptors (crude membrane preparation of uteri of DES-treated rats)
Conditions: saturation binding assay, uterus

Kd: 0.7 nM
Substance: [tyrosyl, 3,5-[^3 H]OT [[^3]OT]
